Assay results reported in PubChem BioAssay AID588819 (The Scripps Research Institute Molecular Screening Center, 2011).
Only a part is listed here, and it is no random draw. Active and inactive are the calls of the source. No stated cut-off is given here; in the data, active means activation above about 19% (passing the limit was not always enough); inactive means the rest.

Sequences of proteins named here, by UniProt entry; tags and fusion partners are left off. A change or cut given only in a name is not applied to a line headed by its entry.
UniProt P11229: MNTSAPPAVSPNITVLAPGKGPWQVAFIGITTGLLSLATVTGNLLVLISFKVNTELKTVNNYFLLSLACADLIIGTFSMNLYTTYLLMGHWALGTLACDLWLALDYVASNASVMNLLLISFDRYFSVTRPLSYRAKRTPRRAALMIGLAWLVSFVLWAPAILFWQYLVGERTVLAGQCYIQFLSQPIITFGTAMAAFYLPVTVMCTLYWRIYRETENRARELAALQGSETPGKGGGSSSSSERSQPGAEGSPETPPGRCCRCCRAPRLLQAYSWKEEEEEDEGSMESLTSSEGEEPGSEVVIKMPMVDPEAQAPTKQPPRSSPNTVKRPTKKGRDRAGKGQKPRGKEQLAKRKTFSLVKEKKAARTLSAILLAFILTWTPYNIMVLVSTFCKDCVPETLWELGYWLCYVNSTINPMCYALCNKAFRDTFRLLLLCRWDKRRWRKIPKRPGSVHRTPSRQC

target: Muscarinic acetylcholine receptor M1 (Homo sapiens) (UniProt P11229); assay: CHRM1 PAMs potentiating acetylcholine calcium signal – CHO-K1 cells, Fluo-8 calcium fluorescence, 1536-well, primary screen (AID 588819); conditions: CHO-K1 hM1, Fluo-8 calcium fluorescence, ACh EC20; at 3 µM; stronger effect = higher value; 0% = ACh EC20, 100% = maximal ACh

| Structure (SMILES) | activation |
| --- | --- |
| CC1CCNP(=O)(N(CCCl)CCCl)O1 (stereo unspecified) | inactive: -0.17% |
| C/C=C1/CC(C)C(C)(O)C(=O)OCC2CCN3CCC(OC1=O)C23 (stereo unspecified) | inactive: -26.2% |
| CCOC(=O)Nc1ccc([As](=O)(O)O)c(O)c1 | inactive: 5.57% |
| O=C(O)C(O)c1ccc(N(CCCl)CCCl)cc1 (stereo unspecified) | inactive: 0.22% |
| CC(C)NC(=O)NP(=O)(Oc1ccccc1)Oc1ccccc1 | inactive: 11.7% |
| O=C(OC1CN2CCC1CC2)c1cccc2[nH]cnc12 (stereo unspecified) | inactive: 11.6% |
| CCN(CC)C(=S)SC(NC=O)C(Cl)(Cl)Cl (stereo unspecified) | inactive: -4.2% |
| O=[N+]([O-])c1cc([N+](=O)[O-])c(-c2ccn[nH]2)s1 | inactive: 0.36% |
| COC(=O)C1(C)COP(=O)(N2CCCCCC2)OC1 (stereo unspecified) | inactive: 6.3% |
| CC(C)c1ccc(OP(=O)(Nc2ccccn2)Oc2ccccc2F)cc1 (stereo unspecified) | inactive: 9.77% |
| ClCCSc1nnc(-c2cccnc2)o1 | inactive: 9.38% |
| Cc1ccc2nc3c(c(C)c2c1)CC(C(Cl)Cl)S3 (stereo unspecified) | inactive: 1.76% |
| Cc1ccc(OP(=O)(Nc2ccc([N+](=O)[O-])cn2)Oc2ccc(C)cc2)cc1 | inactive: 8.27% |
| CC(Cc1ccc(O)cc1)NCC(O)c1cc(O)cc(O)c1 (stereo unspecified) | inactive: 0.04% |
| C[As](=O)(O)c1cccc(C(=O)O)c1 | inactive: 2.92% |
| O=[As](O)(c1ccc(O)cc1)c1ccccc1O | inactive: 2.81% |
| O=[N+]([O-])c1ccc(-c2cc([N+](=O)[O-])c(O)c([N+](=O)[O-])c2)cc1 | inactive: 2.94% |
| COc1ccc(N/C(=N/P(=O)(N2CCOCC2)N2CCOCC2)N2CCOCC2)cc1 | inactive: 6.07% |
| O=[N+]([O-])c1cc(Oc2ccc([N+](=O)[O-])cc2C(F)(F)F)cc([N+](=O)[O-])c1 | inactive: 0.77% |
| COc1ccc2nc(NP(=O)(c3ccccc3)c3ccccc3)sc2c1 | inactive: -4.26% |
| COc1cc(I)ccc1[As](=O)(O)O | inactive: -1.19% |
| O=P1(N(CCCl)CCCl)Nc2ccccc2N1 | inactive: 4.55% |
| O=P1(N(CCCl)CCCl)OCCCN1CCCl (stereo unspecified) | inactive: 2.89% |
| O=C(OC1CN2CCC1CC2)C12CC3CC(CC(C3)C1)C2 (stereo unspecified) | inactive: -20.9% |
| Cc1cc(=O)[nH]c(N[N+](=O)[O-])n1 | inactive: 16.3% |
| Cc1c2c(nc3ccccc13)SC(C(Cl)Cl)C2 (stereo unspecified) | inactive: 8% |
